Biological target: Replicase polyprotein 1ab (Severe acute respiratory syndrome coronavirus 2, UniProt P0DTD1)
Experiment: Inhibition of SARS-CoV-2 3CLpro preincubated for 30 mins followed by addition of (Dabcyl)KTSAVLQSGFRKM(Glu) peptide substrate and measured after […] by FRET assay

CCC[C@@H](C=O)NC(=O)[C@H](CC(C)C)NC(=O)[C@H](CC(C)C)NC(=O)OCc1ccccc1
IC50: > 10 µM

Reference: ChEMBL document CHEMBL4808212 (Bioorg Med Chem Lett, 2021)
